Measurements as given in BindingDB's records for 19481235.
pIC50: −log10 of the molar value.

Chains of the proteins cited; added tags and fusions are not shown. Residues count along the entry.
UniProt O42275, 24-633 limits assumed: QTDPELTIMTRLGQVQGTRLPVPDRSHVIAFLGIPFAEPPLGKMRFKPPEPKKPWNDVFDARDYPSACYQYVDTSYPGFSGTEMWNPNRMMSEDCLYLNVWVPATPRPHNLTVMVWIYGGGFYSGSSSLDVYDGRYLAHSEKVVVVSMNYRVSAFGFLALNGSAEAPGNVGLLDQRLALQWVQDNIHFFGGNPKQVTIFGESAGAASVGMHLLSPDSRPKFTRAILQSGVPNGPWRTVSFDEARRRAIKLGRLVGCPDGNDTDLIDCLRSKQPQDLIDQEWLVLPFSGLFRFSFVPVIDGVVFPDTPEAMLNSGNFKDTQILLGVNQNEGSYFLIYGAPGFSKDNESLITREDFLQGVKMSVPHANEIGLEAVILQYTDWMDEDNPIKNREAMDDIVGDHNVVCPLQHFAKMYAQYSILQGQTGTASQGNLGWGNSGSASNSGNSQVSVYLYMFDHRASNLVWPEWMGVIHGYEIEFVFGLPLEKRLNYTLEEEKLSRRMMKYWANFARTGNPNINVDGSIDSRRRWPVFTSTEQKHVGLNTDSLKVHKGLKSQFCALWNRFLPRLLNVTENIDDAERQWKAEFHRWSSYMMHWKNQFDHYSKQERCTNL

Target: Acetylcholinesterase (Electrophorus electricus, UniProt O42275)
Experiment: Inhibition of Electrophorus electricus (electric eel) acetylcholinesterase by Ellman method

SMILES	pIC50
CCOP(=S)(OCC)SCc1cccc(CSP(=S)(OCC)OCC)n1	3.45
CCOP(=O)(OCC)SCc1cccc(CSP(=O)(OCC)OCC)n1	4.04
